Results reported in ChEMBL document CHEMBL3352558, “β-Keto and β-hydroxyphosphonate analogs of biotin-5'-AMP are inhibitors of holocarboxylase synthetase” (Bioorg Med Chem Lett, 2014).

Protein sequences, listed by entry. Tags and fused reporters are not part of them.
UniProt P06709, whole entry: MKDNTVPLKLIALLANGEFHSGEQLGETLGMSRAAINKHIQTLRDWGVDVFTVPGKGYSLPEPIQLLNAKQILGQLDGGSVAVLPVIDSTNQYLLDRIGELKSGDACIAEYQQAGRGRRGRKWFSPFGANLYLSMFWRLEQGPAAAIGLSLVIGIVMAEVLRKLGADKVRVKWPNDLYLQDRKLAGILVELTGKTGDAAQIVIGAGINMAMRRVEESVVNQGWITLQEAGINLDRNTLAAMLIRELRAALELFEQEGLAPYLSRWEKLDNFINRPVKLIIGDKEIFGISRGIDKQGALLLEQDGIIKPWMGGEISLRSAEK

What was measured:
[1] = biological target: Bifunctional ligase/repressor BirA (Escherichia coli (strain K12), UniProt P06709); test: Binding affinity to Escherichia coli biotin protein ligase
Biotin--protein ligase = biological target: T1, Biotin--protein ligase (Homo sapiens, UniProt P50747); test: Inhibition of human recombinant HLCS using P67 as substrate after 2 hrs relative to vehicle-treated control
T1 sequence (P50747 whole entry): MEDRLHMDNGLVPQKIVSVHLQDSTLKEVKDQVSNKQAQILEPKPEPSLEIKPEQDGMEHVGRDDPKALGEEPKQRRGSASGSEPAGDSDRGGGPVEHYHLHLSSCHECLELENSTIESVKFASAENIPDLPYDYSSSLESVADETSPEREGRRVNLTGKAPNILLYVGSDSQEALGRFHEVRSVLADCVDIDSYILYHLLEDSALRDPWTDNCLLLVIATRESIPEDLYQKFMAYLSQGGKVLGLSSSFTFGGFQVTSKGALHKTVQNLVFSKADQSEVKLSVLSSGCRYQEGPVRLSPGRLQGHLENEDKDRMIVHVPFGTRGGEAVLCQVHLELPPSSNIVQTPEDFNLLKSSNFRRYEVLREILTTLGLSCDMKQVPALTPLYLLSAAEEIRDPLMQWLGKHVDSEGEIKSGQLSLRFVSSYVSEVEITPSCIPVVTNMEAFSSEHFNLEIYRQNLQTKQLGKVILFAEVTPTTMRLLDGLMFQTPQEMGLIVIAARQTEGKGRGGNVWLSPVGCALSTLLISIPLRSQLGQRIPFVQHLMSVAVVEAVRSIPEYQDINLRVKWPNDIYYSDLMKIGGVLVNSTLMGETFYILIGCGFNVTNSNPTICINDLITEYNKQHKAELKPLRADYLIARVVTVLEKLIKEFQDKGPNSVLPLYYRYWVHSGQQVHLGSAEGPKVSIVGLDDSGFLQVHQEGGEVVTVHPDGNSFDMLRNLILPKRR
Procedure, shortened: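 Biotinylated p67 resolved on 16% Tricine gels, blotted, probed with anti-biotin and read by infrared imaging. IC50 from nonlinear One-site-Fit-logIC50; Ki derived from IC50; n=4, mean±SD.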

Q: For `Nc1ncnc2c1ncn2[C@@H]1O[C@H](COP(=O)(O)OCCCCC[C@@H]2SC[C@@H]3NC(=O)N[C@@H]32)[C@@H](O)[C@H]1O`, which Kd [1] is on record?
A: 0.0015 µM

Q: And the IC50 (Biotin--protein ligase)?
A: 8.8 µM

Q: And the Ki (Biotin--protein ligase)?
A: 0.754 µM
